Experimental findings from PMC7244308 (Science Advances, 2020) are described below.

Sequences of proteins named here, by UniProt entry; tags and fusion partners are left off. A change or cut given only in a name is not applied to a line headed by its entry. Residues count along the entry.
UniProt Q7ZAK5, whole entry, looked up: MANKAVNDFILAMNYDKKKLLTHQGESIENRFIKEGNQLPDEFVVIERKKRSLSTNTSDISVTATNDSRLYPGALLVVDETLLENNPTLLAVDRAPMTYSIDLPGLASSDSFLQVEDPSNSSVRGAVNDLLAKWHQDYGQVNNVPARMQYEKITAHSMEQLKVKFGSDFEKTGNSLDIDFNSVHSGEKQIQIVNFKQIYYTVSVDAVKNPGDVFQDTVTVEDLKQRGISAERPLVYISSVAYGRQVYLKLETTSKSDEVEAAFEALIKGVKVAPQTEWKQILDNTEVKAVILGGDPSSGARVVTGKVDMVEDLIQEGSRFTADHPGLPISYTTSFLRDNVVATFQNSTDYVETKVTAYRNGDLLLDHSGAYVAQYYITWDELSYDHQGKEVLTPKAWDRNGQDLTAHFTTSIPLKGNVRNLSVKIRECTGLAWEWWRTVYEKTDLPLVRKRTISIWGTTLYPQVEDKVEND
UniProt P0C0I3, 34-571 limits assumed: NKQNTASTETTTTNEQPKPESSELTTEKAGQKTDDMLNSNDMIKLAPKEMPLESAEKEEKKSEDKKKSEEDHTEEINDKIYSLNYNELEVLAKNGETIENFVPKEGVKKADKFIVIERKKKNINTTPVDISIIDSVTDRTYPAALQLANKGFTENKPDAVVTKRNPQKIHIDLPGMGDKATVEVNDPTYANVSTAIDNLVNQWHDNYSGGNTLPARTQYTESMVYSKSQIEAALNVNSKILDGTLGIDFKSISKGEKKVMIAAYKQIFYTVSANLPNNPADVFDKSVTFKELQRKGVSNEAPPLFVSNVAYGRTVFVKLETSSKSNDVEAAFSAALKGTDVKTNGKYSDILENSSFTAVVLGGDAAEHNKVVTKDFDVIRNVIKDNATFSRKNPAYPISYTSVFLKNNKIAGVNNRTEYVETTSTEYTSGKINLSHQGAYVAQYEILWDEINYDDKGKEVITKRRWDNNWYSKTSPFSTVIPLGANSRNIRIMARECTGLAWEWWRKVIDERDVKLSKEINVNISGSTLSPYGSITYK
UniProt Q9LCB8: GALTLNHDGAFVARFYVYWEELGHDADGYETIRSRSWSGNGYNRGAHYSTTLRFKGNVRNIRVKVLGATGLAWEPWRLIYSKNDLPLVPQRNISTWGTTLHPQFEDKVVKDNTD

The term Kd denotes the equilibrium constant for the complex coming apart. Low values mean higher affinity, high ones lower affinity.

Where “and” joins values, the source holds several entries; their conditions need not be identical. Equal values may be shown once.

The target in one series is Ply (Streptococcus pneumoniae, UniProt Q7ZAK5). Type of series: binding.
A further series concerns the target SLO (Streptococcus pyogenes serotype M1, UniProt P0C0I3). Type of series: binding.
For a further series, the target named is LLO D4 (Listeria monocytogenes serovar 1/2a, UniProt P13128). It counts as binding.
Another series has as its target ILY (Streptococcus intermedius, UniProt Q9LCB8). It counts as binding.
A further series addresses LLY (−LD) (Streptococcus mitis, UniProt Q2PHL4). It counts as binding.
The format of series [1] is physicochemical.

pregnenolone sulfate (sodium salt) [PS]: the dissociation constant (Kd) at Ply is ~0.4 nM and 0.4 nM; on SLO, 52 nM; on LLO D4, 214 nM; at ILY it was 588 nM; at LLY (−LD), 997 nM. Besides, in series [1], the solubility entry is reported as “up to 500 μM”.
